The target in one experiment is human orexin 1 receptor (Homo sapiens (Human), UniProt O43613). The experiment in a line: Human orexin 1 receptor radioligand binding ([3H]-SB674042 competition). The following applies: read-out: OR-1 Ki. The method, then: (§1) The in vitro affinity of the compounds for the human orexin-1 and orexin-2 receptors was determined by competitive radioligand binding using [^3H]SB SB674042 (1-(5-(2-fluoro-phenyl)-2-methyl-thiazol-4-yl)-1-((S)-2-(5-phenyl-(1,3,4)oxadiazol-2-ylmethyl)-pyrrolidin-1-yl)methanone) (Langmead et al., British Journal of Pharmacology 2004, 141:340-346.) and [^3H]EMPA (N-ethyl-2[(6-methoxy-pyridin-3-yl)-(toluene-2-sulfonyl)-amino]-N-pyridin-3-ylmethyl acetamide) (Malherbe et al., British Journal of Pharmacology, 2009, 156(8), 1326-1341), respectively.
Human Orexin 1 Receptor Radioligand Binding Studies
Chinese ovary cells (CHO) stably expressing human orexin 1 receptor (Genebank accession number NM_001526) were grown to confluency in DMEM/F12 (Gibco, Cat #11039), 10% FBS, 1× Pen/Strep, 600 μg/mL G418 media on 150 cm^2 tissue culture plates, washed with 5 mM EDTA in PBS (HyClone Dulbecco's Phoshpate Buffered Saline 1× with Calcium and Magnesium, Cat #SH30264.01, hereafter referred to simply as PBS) and scraped into 50 ml tubes. After centrifugation (2K xG, 10 min at 4° C.), the supernatant was aspirated and the pellets frozen and stored at −80° C. Cells were resuspended in PBS in the presence of 1 tablet of protease inhibitor cocktail (Roche, Cat. #11836145001) per 50 mL. […] Compounds were solubilized in 100% DMSO (Acros Organics, Cat. #61042-1000) and tested over a range of 7 concentrations (from 0.1 nM to 10 μM). The final concentration of DMSO in the reactions is equal to or less than 0.1%. Total and nonspecific binding was determined in the absence and presence of 10 μM (1-(6,8-difluoro-2-methylquinolin-4-yl)-3-[4-(dimethylamino)phenyl]urea, CAS Registry #288150-92-5). The total volume of each reaction is 200 μL (20 μL of diluted compounds, 80 μL of [^3H]-SB674042 diluted in PBS and 100 μL of the cell suspension). […] Plates were dried in 55° C. oven for 60 min, scintillation fluid was added, and the radioactivity was counted on a Topcount (Packard).

Amino acid sequences for entries named in this document (tags omitted).
UniProt O43613, whole entry: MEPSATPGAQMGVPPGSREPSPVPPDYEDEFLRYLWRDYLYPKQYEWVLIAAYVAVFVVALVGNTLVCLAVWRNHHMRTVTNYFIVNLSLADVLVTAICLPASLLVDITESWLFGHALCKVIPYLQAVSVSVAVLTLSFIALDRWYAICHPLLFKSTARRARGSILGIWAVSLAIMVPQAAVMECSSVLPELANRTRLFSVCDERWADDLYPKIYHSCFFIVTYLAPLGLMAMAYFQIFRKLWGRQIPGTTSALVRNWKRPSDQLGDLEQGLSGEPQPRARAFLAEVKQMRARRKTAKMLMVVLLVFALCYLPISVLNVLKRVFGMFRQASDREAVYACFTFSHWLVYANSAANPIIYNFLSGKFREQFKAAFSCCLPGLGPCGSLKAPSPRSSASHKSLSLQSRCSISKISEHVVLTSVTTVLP
UniProt O43614, whole entry: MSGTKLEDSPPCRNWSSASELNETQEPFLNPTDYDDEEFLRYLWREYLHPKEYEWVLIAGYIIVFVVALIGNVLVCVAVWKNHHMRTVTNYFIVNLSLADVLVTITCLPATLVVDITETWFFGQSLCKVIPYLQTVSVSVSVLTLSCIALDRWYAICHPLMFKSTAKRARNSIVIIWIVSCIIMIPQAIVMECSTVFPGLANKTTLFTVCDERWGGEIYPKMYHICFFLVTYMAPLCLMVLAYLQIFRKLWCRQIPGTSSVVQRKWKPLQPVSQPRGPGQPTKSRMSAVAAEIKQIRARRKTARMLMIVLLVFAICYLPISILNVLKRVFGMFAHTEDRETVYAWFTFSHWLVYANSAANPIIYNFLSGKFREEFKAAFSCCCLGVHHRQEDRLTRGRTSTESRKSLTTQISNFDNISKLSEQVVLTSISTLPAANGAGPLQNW

A further experiment has as its target human orexin-2 receptor (Homo sapiens (Human), UniProt O43614). The experiment in a line: Human orexin 2 receptor radioligand binding ([3H]-EMPA competition). The following applies: read-out: OR-2 Ki. The method, then: as §1
Human Orexin 2 Receptor Radioligand Binding Studies
HEK293 stably expressing human orexin-2 receptor (Genebank accession number NM_001526) were grown to confluency in DMEM/F12 (Gibco, Cat #11039), in DMEM, 10% FBS, 1× Pen/Strep, 1× NaPyruvate, 1×HEPES, 600 ug/ml G418 media on 150 cm^2 tissue culture plates, washed with 5 mM EDTA in PBS (HyClone Dulbecco's Phosphate Buffered Saline 1× with Calcium and Magnesium, Cat #SH30264.01, hereafter referred to simply as PBS) and scraped into 50 ml tubes. After centrifugation (2K xG, 10 min at 4° C.), the supernatant was aspirated and the pellets frozen and stored at −80° C. Cells were resuspended in PBS in the presence of 1 tablet of protease inhibitor cocktail (Roche, Cat. #11836145001) per 50 mL. […] Competition binding experiments in 96 well polypropylene plates were performed using [^3H]-EMPA (Moravek Corporation, specific activity=27 Ci/mmol), diluted to a […] concentration in PBS (5 nM final concentration). Compounds were solubilized in 100% DMSO (Acros Organics, Cat. #61042-1000) and tested over a range of 7 concentrations (from 0.1 nM to 10 μM). The final concentration of DMSO in the reactions is equal to or less than 0.1%. Total and nonspecific binding was determined in the absence and presence of 10 μM (N-[2-(3,4-dimethoxyphenyl)ethyl]-N-methylnaphthalene-1-carboxamide, CAS Registry #1089563-88-1). […] Plates were dried in 55° C. oven for 60 min, scintillation fluid was added, and the radioactivity was counted on a Topcount (Packard).

Setting [1] is: CHO cells stably expressing human orexin 1 receptor, [3H]-SB674042 4 nM final.
Where [2] appears, read: HEK293 cells stably expressing human orexin-2 receptor, [3H]-EMPA 5 nM final.

SMILES strings stand for the structures. Where two headings read alike, the source gives them in different places.

With `O=C(c1ccccc1-c1ccccc1)N1CC[C@H]2CN(c3cnc4ccccc4n3)[C@H]2C1` [Example 5, (1R,6S)Biphenyl-2-yl-(8-quinoxalin-2-yl-3,8-diaza-bicyclo[4.2.0]oct-3-yl)-methanone], the Ki (usually a dissociation constant, usually derived from enzyme kinetics or from competition with a known ligand) at human orexin 1 receptor (setting [1]) stood at 8 nM; at human orexin-2 receptor (setting [2]), 10 nM.
For the compound `Cc1cc(C)nc(N2C[C@@H]3CCN(C(=O)c4ccnc5ncccc45)C[C@@H]32)n1` [Example 132, 4-{[(1R,6S)-8-(4,6-Dimethylpyrimidin-2-yl)-3,8-diazabicyclo[4.2.0]oct-3-yl]carbonyl}-1,8-naphthyridine], the Ki at human orexin 1 receptor and at human orexin-2 receptor was 10000 nM each time.
Take `O=C(c1ccccc1-c1ccccc1)N1CCC2CN(c3cnc4ccccc4n3)C2C1` (stereo not drawn) [Example 8, Biphenyl-2-yl-(8-quinoxalin-2-yl-3,8-diaza-bicyclo[4.2.0]oct-3-yl)-methanone]: the Ki at human orexin 1 receptor (setting [1]) and on human orexin-2 receptor (setting [2]) was 24 nM throughout.

Source of the values: US8680275B2, “Fused heterocyclic compounds as orexin receptor modulators” (Janssen Pharmaceutica NV, priority 2009, dated 2014).
